Test results taken from ChEMBL document CHEMBL3414490 (Eur J Med Chem, 2015).

Biological target: Prothrombin (Homo sapiens, UniProt P00734)
Experiment: Inhibition of human thrombin using Ac-FVR-AMC as substrate incubated for 10 mins prior to substrate addition measured for 10 min by fluorescence assay

Work on `CC1CNc2c(cccc2S(=O)(=O)N[C@@H](CCCNC(=N)N)C(=O)N2CC[C@@H](C)C[C@@H]2C(=O)O)C1` (stereo partly specified) [ARGATROBAN] yielded an IC50 of 9.46 nM.
